From ChEMBL document CHEMBL3813622, “Anion inhibition profiles of α-, β- and γ-carbonic anhydrases from the pathogenic bacterium Vibrio cholerae” (Bioorg Med Chem, 2016) come the findings set out here.

The structures appear in SMILES notation.

The nature of the assay: Inhibition of Helicobacter pylori alpha carbonic anhydrase preincubated for 15 mins by stopped-flow CO2 hydrase assay.

On to `S` [HYDROGEN SULFIDE], for which the Ki was determined as 690 µM.

One may read the Ki as a measure of affinity in units of concentration, obtained from inhibition or displacement. The low end stands for higher affinity, the high end for lower affinity.
